In the assay the test system is NRG1-DOC4 fusion breast cancer cell line, MDA175-VII. The assay can be described thus: Cell viability of MDA175-VII cells by Cell Titer Glo assay. The format is cell-based. The note with it: HER2 targeting antibody alone, 72 hours. Here is the method: The cell viability of NRG1-DOC4 fusion breast cancer cell line, MDA175-VII, was tested with treatment of poziotinib with and without antibodies and antibody drug conjugates (ADCs) targeting HER2 and HER2/HER3 dimerization. Cell viability was determined by the Cell Titer Glo assay.

Some results are limits rather than exact numbers.

Here are results for one substance from patent publication US20230069749A1, “USE OF POZIOTINIB FOR THE TREATMENT OF CANCERS WITH NRG1 FUSIONS” (Board of Regents, The University of Texas System, priority 2020, published 2023).

“trastuzumab: humanized, IgG1 kappa, monoclonal antibody that selectively binds the extracellular domain of HER2 (ErbB2)”: the IC50 values was over 10 µg/mL.
